Toxic doses and inconclusive results are not listed. Rule for the calls: active = survival T/C of 150% or more; inactive = T/C below 125% in these data.
Tested on: P388 leukemia ip, CD2F1 mice, survival T/C
Assay: NCI In Vivo Anticancer Drug Screen. Data for tumor model P388 Leukemia (intraperitoneal) in CD2F1 (CDF1) mice
Conditions: endpoint: median survival time, higher = longer survival

Measured: T/C

CN(Cc1cnc2nc(N)nc(N)c2n1)c1ccc(C(=O)N[C@@H](CCC(=O)O)C(=O)O)cc1
active: dose: 0.38 mg/kg/injection, schedule: Q01DX005 (ip), vehicle: sodium bicarbonate 151 % of control | dose: 1.2 mg/kg/injection, schedule: Q04DX003 (ip), vehicle: saline 172 % of control | dose: 1.5 mg/kg/injection, schedule: Q01DX005 (ip), vehicle: sodium bicarbonate 162 % of control | dose: 2.0 mg/kg/injection, schedule: Q04DX003 (ip), vehicle: sodium bicarbonate 162 % of control | dose: 4.5 mg/kg/injection, schedule: Q04DX003 (iv), vehicle: sodium bicarbonate 172 % of control

Reference: PubChem BioAssay AID330 (DTP/NCI, 2004)
